Assay results as given in US8067372B2, “Modulation of angiogenesis by A-beta peptide fragments” (Alzheimer's Institute of America, Inc., priority 2005, dated 2011).

Experiments:
[1] = system: VEGF-induced angiogenesis; experiment: Rat corneal micropocket assay; type: in vivo; conditions: 7 days
Experimental: This assay was carried out as described previously (Paris D, Townsend K, Quadros A, Humphrey J, Sun J, Brem S, Wotoczek-Obadia M, DelleDonne A, Patel N, Obregon D F, Crescentini R, Abdullah L, Coppola D, Rojiani A M, Crawford F, Sebti S M, Mullan M. (2004) Angiogenesis. 7, 75-85), using hydron pellets containing either VEGF (200 ng) alone, or in combination with different amounts of Aβ peptide fragments. The vascular growth response was measured seven days post implantation. The lengths and widths of vessel outgrowths were measured and the angiogenic index (AI) calculated using the formula L×W=AI. Rats were perfused with colloidal carbon, eyes enucleated and fixed in 10% buffered formalin. Corneas were removed under an Olympus dissecting microscope and mounted on glass slides with Crystal Mount media.

[2] = system: Human Umbilical Vein Endothelial Cells (HUVEC); experiment: Capillary tube formation assay (HUVEC on Matrigel); type: cell-based; conditions: 24 hours
Experimental: All in-vitro experiments were performed using primary Human Umbilical Vein Endothelial Cells (HUVEC) at passages 3-4, purchased from American Tissue Type Culture Collection (ATCC, VA). Cells were cultured in F12K Medium (ATCC, VA) supplemented with 10% fetal bovine serum (Invitrogen, CA), 0.1 mg/ml Heparin and 0.03 mg/ml endothelial cell growth supplement (Sigma-Aldrich, MO). At all times, cells were maintained in a sterile cell culture incubator at 37° C. and 5% CO2.
HUVEC (7.5×10^4 cells/ml) in 500 μl of medium were seeded in 24-well plates, on top of a layer of Matrigel basement membrane matrix (Invitrogen, CA) in F12K medium (ATCC, VA) containing 4% serum (Invitrogen, CA), 0.1 mg/ml Heparin and 0.03 mg/ml endothelial cell growth supplement (Sigma-Aldrich, MO). Cells were incubated with peptides (or control conditions) for 24 hours. Control wells received the same volume of vehicle (DMSO) used to dilute the peptides. Network formation experiments were performed in triplicate, and at least 2 randomly chosen fields were photographed for each well using a 4× objective. Capillary length was measured using Image Pro Plus software (Media Cybernetic, Inc., MD).

[3] = 0.5, 2.5 and 5.0 μg with 200 ng VEGF

VHHQKLVFFAEDVGSNK (listed as Homo sapiens) [Aβ12-28]
Angiogenic Index: post hoc effect ([1]; 5 μg dose with 200 ng VEGF, P<0.001): significant effect
Angiogenic Index: ANOVA main effect of dose [1, 3]: significant main effect
inhibition of VEGF-induced angiogenesis in vivo (Angiogenic Index) [1, 3]: dose dependently inhibit
Total length of capillary tubes (percentage of control): post hoc difference from control ([2]; 5 and 10 μM doses, P<0.005, n≧8): significant differences
anti-angiogenic activity in capillary network formation ([2]; tested at 1, 5 and 10 μM): most active
